This data set in a line: Binding to plasmatic proteins. The following applies: plasma.

Molecules are shown by their SMILES.

One may read the fraction unbound as free concentration divided by total concentration. Lower therefore signals extensive binding. With `OCC[N+]1(Cc2ccc(I)cc2)CCCC1` [Example 20, 1-(2-hydroxyethyl)-1-(4-iodobenzyl)pyrrolidin-1-ium 4-methylbenzenesulfonate], the fraction unbound is 0.921.

(Values after EP3423441B1, “IODINATED ANALOGS OF CHOLINE, METHODS OF PREPARATION THEREOF, AND USE THEREOF AS MEDICAMENTS” (Univerzita Palackého v Olomouci, priority 2016, dated 2017).)
